Earlier results as cited in patent US7906139B2, “Compositions and methods of using lamellar bodies for therapeutic purposes” (Lamellar Therapeutics Limited, priority 2003, dated 2011).

Target: T1, fibrin gels from normal human fibrinogen (Homo sapiens, UniProt P02671+P02675+P02679)
T1 sequence (P02671 20-644 isoform P02671-2 limits assumed): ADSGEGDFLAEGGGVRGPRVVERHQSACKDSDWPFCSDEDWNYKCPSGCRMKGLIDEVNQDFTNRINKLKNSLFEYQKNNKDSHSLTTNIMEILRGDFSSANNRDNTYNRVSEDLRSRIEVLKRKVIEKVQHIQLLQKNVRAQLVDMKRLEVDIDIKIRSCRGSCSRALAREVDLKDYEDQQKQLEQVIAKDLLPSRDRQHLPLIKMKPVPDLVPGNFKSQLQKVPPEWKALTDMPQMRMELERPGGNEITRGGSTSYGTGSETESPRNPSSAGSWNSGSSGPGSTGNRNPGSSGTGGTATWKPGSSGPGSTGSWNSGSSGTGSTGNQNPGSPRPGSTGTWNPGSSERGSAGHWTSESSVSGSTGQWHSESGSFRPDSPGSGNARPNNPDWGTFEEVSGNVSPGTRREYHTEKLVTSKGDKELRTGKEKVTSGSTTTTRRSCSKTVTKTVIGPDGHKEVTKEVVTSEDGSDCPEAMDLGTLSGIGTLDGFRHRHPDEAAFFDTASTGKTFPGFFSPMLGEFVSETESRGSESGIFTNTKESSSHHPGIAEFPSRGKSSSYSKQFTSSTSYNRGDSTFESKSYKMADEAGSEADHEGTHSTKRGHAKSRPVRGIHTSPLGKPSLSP
T1 sequence (P02675 45-491 limits assumed): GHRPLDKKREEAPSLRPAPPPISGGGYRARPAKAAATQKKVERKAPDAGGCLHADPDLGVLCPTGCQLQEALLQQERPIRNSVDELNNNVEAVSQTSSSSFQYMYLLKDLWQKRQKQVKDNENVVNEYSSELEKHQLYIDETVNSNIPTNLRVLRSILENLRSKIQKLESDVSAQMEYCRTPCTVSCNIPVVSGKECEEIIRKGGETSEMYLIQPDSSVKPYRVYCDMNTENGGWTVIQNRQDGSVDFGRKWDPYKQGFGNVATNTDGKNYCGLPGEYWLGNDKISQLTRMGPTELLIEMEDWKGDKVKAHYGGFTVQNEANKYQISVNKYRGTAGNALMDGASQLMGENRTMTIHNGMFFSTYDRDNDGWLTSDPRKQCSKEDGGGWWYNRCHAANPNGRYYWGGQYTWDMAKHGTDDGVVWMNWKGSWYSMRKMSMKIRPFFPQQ
T1 sequence (P02679 27-437 isoform P02679-2 limits assumed): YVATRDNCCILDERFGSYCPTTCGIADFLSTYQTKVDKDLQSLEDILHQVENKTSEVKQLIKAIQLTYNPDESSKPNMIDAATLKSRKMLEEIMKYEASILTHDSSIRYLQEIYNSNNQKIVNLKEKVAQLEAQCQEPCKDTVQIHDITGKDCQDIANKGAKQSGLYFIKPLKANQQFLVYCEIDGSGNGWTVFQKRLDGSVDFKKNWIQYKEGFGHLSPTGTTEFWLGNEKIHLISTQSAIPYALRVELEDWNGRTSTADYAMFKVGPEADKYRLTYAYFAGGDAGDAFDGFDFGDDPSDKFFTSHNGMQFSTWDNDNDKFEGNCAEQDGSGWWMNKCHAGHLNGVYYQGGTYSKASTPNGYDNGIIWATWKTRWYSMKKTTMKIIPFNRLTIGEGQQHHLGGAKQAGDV

Substance: Albumin: protein known to produce more porous fibrin gel structures when present in the gel-forming system
- effect on gel structure when present in the gel-forming system: more porous structures
